Test results published in ChEMBL document CHEMBL1132392, “Novel derivatives of 3-(dipropylamino)chroman. Interactions with 5-HT1A and D2A receptors” (Bioorg Med Chem Lett, 1999).

Sequences of proteins named here, by UniProt entry; tags and fusion partners are left off.
UniProt P14416, whole entry: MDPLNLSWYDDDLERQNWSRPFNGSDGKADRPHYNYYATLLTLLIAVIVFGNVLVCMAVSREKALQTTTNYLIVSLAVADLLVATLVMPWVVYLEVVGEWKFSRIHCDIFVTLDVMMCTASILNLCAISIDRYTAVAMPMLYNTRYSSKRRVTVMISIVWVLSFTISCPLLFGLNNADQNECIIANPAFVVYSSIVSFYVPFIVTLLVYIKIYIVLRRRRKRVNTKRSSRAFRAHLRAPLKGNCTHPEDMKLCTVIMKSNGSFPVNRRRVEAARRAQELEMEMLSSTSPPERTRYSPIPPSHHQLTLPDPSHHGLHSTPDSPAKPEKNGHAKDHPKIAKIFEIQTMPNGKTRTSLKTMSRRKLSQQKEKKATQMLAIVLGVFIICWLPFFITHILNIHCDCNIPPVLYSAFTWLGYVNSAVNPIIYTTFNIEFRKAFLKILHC

Molecular target: D(2) dopamine receptor (Homo sapiens, UniProt P14416)
Test: In vitro ability to inhibit [3H]raclopride binding to cloned human D2A receptors expressed in mouse fibroblast (LtK-) cells
Type: cell-based

SMILES: CCCN(CCC)C1COc2c(cccc2-c2ccccc2)C1 (configuration not stated)
- Ki: 590 nM

SMILES: CCCN(CCC)C1COc2c(cccc2-c2ccc(OC)cc2)C1 (configuration not stated)
- Ki: 1090 nM
